Earlier results as cited in patent US6602296B1, “Chemical supplementation of bone” (The University of Western Australia, priority 1997, dated 2003).

Conditions: after intravenous administration; cited from earlier work

Substance: gentamicin Sulphate
- recommended peak serum concentration: 10 mg/L
